Sequences of proteins named here, by UniProt entry; tags and fusion partners are left off. A change or cut given only in a name is not applied to a line headed by its entry.
UniProt P35370: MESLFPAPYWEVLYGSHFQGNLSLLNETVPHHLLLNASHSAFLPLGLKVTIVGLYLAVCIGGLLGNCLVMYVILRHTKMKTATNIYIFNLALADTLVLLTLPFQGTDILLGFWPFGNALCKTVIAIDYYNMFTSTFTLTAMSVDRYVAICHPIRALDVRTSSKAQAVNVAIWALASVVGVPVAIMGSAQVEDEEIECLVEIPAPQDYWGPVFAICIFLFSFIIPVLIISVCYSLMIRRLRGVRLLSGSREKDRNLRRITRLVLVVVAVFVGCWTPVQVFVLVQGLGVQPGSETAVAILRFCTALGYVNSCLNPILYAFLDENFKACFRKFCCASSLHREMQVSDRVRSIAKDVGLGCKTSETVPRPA

According to US5821219A (priority 1995, dated 1998):

Target: novel mammalian opioid receptor (LC132, MSOR, OFQR) (Rattus norvegicus, UniProt P35370)
Settings: membranes from transient (COS-7) and stable (Ltk-) transfectants, 120 min at 22° C.

`CO[C@]12CC[C@@]3(C[C@@H]1C(C)(C)O)[C@H]1Cc4ccc(O)c5c4[C@@]3(CCN1CC1CC1)[C@H]2O5` was tested, and the “specific binding of the radioactively-labeled ligand” value was “no specific binding”.
